{"source": "patent US7968543B2", "about": "(priority 2007, dated 2011)", "test_system": "FLT3 phosphorylation in FLT3-ITD cell lines", "assay": "Ex vivo plasma inhibitory activity, FLT3-ITD cell lines", "settings": "plasma of study patients, 12 mg dose"}
{"compound": "CC(C)(C)c1cc(NC(=O)Nc2ccc(-c3cn4c(n3)sc3cc(OCCN5CCOCC5)ccc34)cc2)no1", "note": "[N-(5-tert-butyl-isoxazol-3-yl)-N′-{4-[7-(2-morpholin-4-yl-ethoxy)imidazo[2,1-b][1,3]benzothiazol-2-yl]phenyl}urea]", "values": [{"measurement": "FLT3 phosphorylation with patient plasma ex vivo", "result": "strongly suppressed"}]}
